GFP/RFP ratio change data for 50 molecules are collected here from PubChem BioAssay AID651647 (Sanford-Burnham Center for Chemical Genomics, 2012).

Structures are written as SMILES. This is a selection; strong and weak results do not stand in their true shares. The source made the active and inactive calls.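 How the source made its calls: active means GFP/RFP ratio change of at least 30% with cell ATP level not reduced by more than half and red fluorescence within 50% of control; inactive means the rest, inconclusive results apart.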

The experiment concerns the target Matrix metalloproteinase-14 (Homo sapiens) (UniProt P50281). The experiment is described as follows: blockers of MT1-MMP proenzyme processing, primary screen, HT1080 RFP-PRO-GFP cells, GFP/RFP fluorescence (AID 651647). To be noted: overnight, at 20 µM, active compounds read high, percent of plate control window, DMSO zero. The method in brief: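 Material – HT1080 RFP-PRO-GFP cells · Control set – DMSO wells and RFP-L50D-GFP cells · Incubation – overnight cell settling, then overnight compound exposure, 37 °C, 5% CO2 · Compound dosing – single-point 20 µM compound, 1% DMSO · Read-out – GFP/RFP fluorescence ratio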
As for `O=P(Nc1nccs1)(c1ccccc1)c1ccccc1`, the GFP/RFP ratio change was inactive: 2.72%.

In the case of `CC(C)C(=O)NC(Sc1ccccc1)C(Cl)(Cl)Cl` (stereo not given), the GFP/RFP ratio change is inactive: 2.16%.

As for `c1nnnn1CCn1cnnn1`, the GFP/RFP ratio change is inactive: -11.5%.

`CN(C)C1(CNC(=O)c2ccc(Cl)c(S(N)(=O)=O)c2)CCCCC1`: the GFP/RFP ratio change is inactive: -1.48%.

With `O=P(Nc1ccccn1)(c1ccc(Br)cc1)c1ccc(Br)cc1`, the GFP/RFP ratio change is inactive: -21.4%.

With `COc1ccc(N)c([N+](=O)[O-])c1[N+](=O)[O-]`, the GFP/RFP ratio change is inactive: 5.42%.

As for `Nc1ccc(CCCCOc2ccccc2)cc1`, the GFP/RFP ratio change was inactive: -4.52%.

As to `O=P(Nc1nc2ccccc2s1)(c1ccccc1)c1ccccc1`, the GFP/RFP ratio change is inactive: 2.35%.

Consider `C[C@H]1OP(=O)(Oc2ccccc2)[C@H](O)[C@H](O)[C@H]1N=[N+]=[N-]` (stereo not given in full), for which the GFP/RFP ratio change was inactive: -3.24%.

As to `O=[As](O)(c1ccccc1)c1ccc(O)cc1`, the GFP/RFP ratio change is inactive: -5.93%.

Turning to `O=[N+]([O-])c1ncn(CCn2cnc([N+](=O)[O-])n2)n1`, the GFP/RFP ratio change is inactive: 3.55%.

With `CC(=O)NC(SC(=S)N(C)C)C(Cl)(Cl)Cl` (stereo not given), the GFP/RFP ratio change is inactive: -2.34%.

For the molecule `O=[N+]([O-])c1ccc(O)c(/C=N/Nc2ccc([N+](=O)[O-])cc2[N+](=O)[O-])c1`, the GFP/RFP ratio change was inactive: -0.592%.

As for `O=C(OC1CN2CCC1CC2)c1cccc(Cl)c1` (stereo not given), the GFP/RFP ratio change was inactive: -0.704%.

Turning to `C(Cc1nn[nH]n1)Cc1nn[nH]n1`, the GFP/RFP ratio change was inactive: 1.7%.

In the case of `Nc1ccc([As](=O)(O)c2ccc([N+](=O)[O-])cc2)cc1`, the GFP/RFP ratio change is inactive: 0.742%.

Turning to `c1ccc(-c2nn[nH]n2)c(-c2nn[nH]n2)c1`, the GFP/RFP ratio change is inactive: -1.69%.

`Cc1ccc(NP(=O)(Oc2cccc(C)c2)Oc2cccc(C)c2)nc1`: the GFP/RFP ratio change is inactive: 2.17%.

For the molecule `O=C(NC1CCS(=O)(=O)C1)NP(=S)(Oc1ccccc1)Oc1ccccc1` (stereo not given), the GFP/RFP ratio change is inactive: -1.1%.

Turning to `CCNC(=S)/N=C(\N)N[N+](=O)[O-]`, the GFP/RFP ratio change was inactive: 2.32%.

As to `O=P1(N(CCCl)CCCl)OCCC2CCCCN21` (stereo not given), the GFP/RFP ratio change was inactive: 2.41%.

In the case of `O=C(OC1CN2CCC1CC2)c1ccccc1` (stereo not given), the GFP/RFP ratio change was inactive: 0.64%.

With `CCC(=O)N1C2C3N(C(=O)CC)C1C1N(C(=O)CC)C(C(N1C(=O)CC)N3C(=O)CC)N2C(=O)CC`, the GFP/RFP ratio change is inactive: 0.905%.

With `COC(=O)c1cc2c(s1)N=C(c1ccccc1)N(C)P2(=O)N1CCOCC1` (stereo not given), the GFP/RFP ratio change was inactive: 1.83%.

On to `Cc1ccc(OP(=O)(Nc2ccccn2)Oc2ccc(C)cc2)cc1`, for which the GFP/RFP ratio change was inactive: 2.8%.

As for `CC(=O)NC(SC(=S)N(CC(C)C)CC(C)C)C(Cl)(Cl)Cl` (stereo not given), the GFP/RFP ratio change is inactive: 2.04%.

On to `CC(NC(=O)COC(=O)C(O)(c1ccccc1)c1ccccc1)c1ccccc1` (stereo not given), for which the GFP/RFP ratio change was inactive: -2.09%.

Take `Cc1ccccc1OP(=O)(Nc1ccccn1)Oc1ccccc1C`: the GFP/RFP ratio change was inactive: -2.22%.

Take `O=c1c2cc([N+](=O)[O-])ccc2[nH]c2c([N+](=O)[O-])cc([N+](=O)[O-])cc12`: the GFP/RFP ratio change is inactive: -5.5%.

In the case of `CN(C)C(=O)Oc1noc2ccccc12`, the GFP/RFP ratio change was inactive: -1.59%.

`O=P1(Nc2nc3ccc(Cl)cc3s2)COc2ccccc2O1` (stereo not given): the GFP/RFP ratio change was inactive: 0.0811%.

Turning to `CCOc1ccc(C2=NCC(CBr)S2)cc1` (stereo not given), the GFP/RFP ratio change is inactive: -3.96%.

As to `CC(C)(C)C(=O)NC(Sc1ccccc1)C(Cl)(Cl)Cl` (stereo not given), the GFP/RFP ratio change was inactive: -1.21%.

On to `CCc1cc(O)c([N+](=O)[O-])c(C)c1[N+](=O)[O-]`, for which the GFP/RFP ratio change is inactive: 6.33%.

On to `C[C@H]1OP(=O)(Oc2ccccc2)C[C@@H]2O[C@@H]21` (stereo not given in full), for which the GFP/RFP ratio change was inactive: 1.27%.

For `C[C@@H]1C=CCP(=O)(Oc2ccccc2)O1` (stereo not given in full), the GFP/RFP ratio change was inactive: 5.78%.

Consider `CC(=O)c1ccc(N2CC2c2ccncc2)cc1` (stereo not given), for which the GFP/RFP ratio change was inactive: -3.14%.

`N#C/C(=C\c1ccc(N(CCBr)CCBr)cc1)C(N)=O`: the GFP/RFP ratio change was inactive: 0.489%.

Turning to `COC(=O)C1(C)COP(=O)(NCc2ccccc2)OC1` (stereo not given), the GFP/RFP ratio change was inactive: 0.28%.

Consider `CC(=O)Nc1ccc([As](=O)(O)O)c(O)c1`, for which the GFP/RFP ratio change was inactive: 4.3%.

In the case of `CC(=O)Nc1ccc(Oc2c([N+](=O)[O-])cc([N+](=O)[O-])cc2[N+](=O)[O-])cc1`, the GFP/RFP ratio change was inactive: 2.18%.

`CN(C(=O)Cc1ccc(Cl)c(Cl)c1)[C@H]1CCCC[C@H]1N1CCCC1`: the GFP/RFP ratio change was inactive: 2.4%.

Regarding `Cc1ccc(N/C(=N/P(=O)(N2CCOCC2)N2CCOCC2)N2CCOCC2)cc1`, the GFP/RFP ratio change is inactive: -11.3%.

For `NC(=O)c1cc([N+](=O)[O-])cc([N+](=O)[O-])c1N`, the GFP/RFP ratio change was inactive: 2.18%.

With `CN1CCCC(OC(=O)C(c2ccccc2)c2ccccc2)C1` (stereo not given), the GFP/RFP ratio change is inactive: -4.93%.

As for `Clc1ccc(Cl)c(NC2=NCC(CBr)S2)c1` (stereo not given), the GFP/RFP ratio change is inactive: 2.38%.

For the molecule `COc1ccccc1OP(=O)(Nc1ccc(C)cn1)Oc1ccccc1OC`, the GFP/RFP ratio change was inactive: -0.457%.

For `Cc1ccc(OP(=O)(Nc2nccs2)Oc2ccc(C)cc2)cc1`, the GFP/RFP ratio change is inactive: 0.311%.

For `Oc1ccccc1CNc1ccccn1`, the GFP/RFP ratio change was inactive: 4.02%.

As to `O=C(NC(Sc1ccncn1)C(Cl)(Cl)Cl)c1ccccc1` (stereo not given), the GFP/RFP ratio change was inactive: -1.15%.
